Experimental data as given in US9657033B2, “Tetrahydronaphthyridine and related bicyclic compounds for inhibition of RORγ activity and the treatment of disease” (Merck Sharp & Dohme Corp., priority 2012, dated 2017).

Amino acid sequences for entries named in this document (tags omitted). Residues count along the entry.
UniProt P51449, 269-508 limits assumed: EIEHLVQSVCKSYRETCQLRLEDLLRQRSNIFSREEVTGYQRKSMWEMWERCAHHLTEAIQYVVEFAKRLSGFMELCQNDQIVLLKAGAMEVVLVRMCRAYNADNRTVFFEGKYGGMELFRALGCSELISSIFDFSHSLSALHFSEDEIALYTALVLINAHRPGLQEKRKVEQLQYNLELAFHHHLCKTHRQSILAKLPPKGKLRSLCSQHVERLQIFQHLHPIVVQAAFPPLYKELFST

Target: RORγ-LBD (Homo sapiens (Human), UniProt P51449)
Test: RORγ-Ligand Binding Domain (LBD) TR-FRET Assay Protocol II
Settings: read-out: Protocol II Fret EC50; purified RORγ-LBD, SRC1 peptide, overnight at 4° C.
Description: Part II—Procedures for RORγ-Ligand Binding Domain TR-FRET Assay Protocol II
HIS-tagged RORγ-LBD protein was expressed in SF9 cells using a baculovirus expression system. The RORγ-LBD protein was purified by […]. Separately, SF9 cells not expressing recombinant protein were lysed in TBS buffer (25 mM Tris, pH 8.0, 150 mM NaCl) under sonication. The lysate was added to the purified RORγ-LBD in a volume equivalent of 0.75 μL lysate (from 30,000 SF9 cells) per 75 femtomol of RORγ-LBD protein. The resulting mixture was diluted in assay buffer (50 mM Tris pH 7.0, 50 mM KCl, 1 mM EDTA, 0.1 mM DTT, 0.01% BSA) to obtain RORγ-LBD protein at a final concentration of 3 nM.
Compounds to be tested were injected to the assay plate using Acoustic Droplet Ejection technology by Echo 550 liquid handler (Labcyte, Calif.). […]
The final assay mixture was incubated overnight at 4° C., and the fluorescence signal was measured on an Envision plate reader: (Excitation filter=340 nm; APC emission=665 nm; Europium emission=615 nm; dichroic mirror=D400/D630; delay time=100 μs, integration time=200 μs). The EC50 value for test compounds was calculated from the quotient of the fluorescence signal at 665 nm divided by the fluorescence signal at 615 nm

Structure (SMILES)	EC50 [nM]
CC(C)OC(=O)N[C@@H]1Cc2ncc(NC(=O)c3c(Cl)cccc3Cl)cc2N(S(=O)(=O)c2cccc(C(F)(F)F)c2)C1 [Compound 58]	127
CC(C)OC(=O)N[C@H]1Cc2ncc(NC(=O)c3c(Cl)cccc3Cl)cc2N(S(=O)(=O)c2cccc(C(F)(F)F)c2)C1 [Compound 47]	370
